Test results: ChEMBL document CHEMBL1130083, “Discovery of prototype peptidomimetic agonists at the human melanocortin receptors MC1R and MC4R” (J Med Chem, 1997)

The chains behind the UniProt entries cited, without tags or fusion partners.
UniProt P32245, whole entry: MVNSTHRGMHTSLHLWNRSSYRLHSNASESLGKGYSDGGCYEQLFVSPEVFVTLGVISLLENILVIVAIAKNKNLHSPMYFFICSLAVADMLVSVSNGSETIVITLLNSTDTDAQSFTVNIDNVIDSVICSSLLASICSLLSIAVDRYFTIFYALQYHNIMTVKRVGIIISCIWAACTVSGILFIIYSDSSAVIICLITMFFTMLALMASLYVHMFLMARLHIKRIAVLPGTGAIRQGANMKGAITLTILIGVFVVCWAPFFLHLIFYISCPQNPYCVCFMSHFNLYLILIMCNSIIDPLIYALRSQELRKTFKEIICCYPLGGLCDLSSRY

Legend:
Melanocortin receptor 4 [1] = target: T1, Melanocortin receptor 4 (Homo sapiens, UniProt P32245); experiment: Displacement of [125I]NDP-MSH from Melanocortin 4 receptor at 10 uM
Melanocortin receptor 4 [2] = target: T1, Melanocortin receptor 4

SMILES | IC50 (Melanocortin receptor 4 [1]) | EC50 (Melanocortin receptor 4 [2])
CC(=O)N[C@@H](Cc1c[nH]cn1)C(=O)N[C@H](Cc1ccccc1)C(=O)N[C@H](CCCN=C(N)N)C(=O)N[C@@H](Cc1c[nH]c2ccccc12)C(N)=O | > 10 µM | –
CC(=O)N[C@@H](Cc1c[nH]cn1)C(=O)N[C@@H](Cc1ccccc1)C(=O)N[C@@H](CCCN=C(N)N)C(=O)N[C@H](Cc1c[nH]c2ccccc12)C(N)=O | > 10 µM | –
CC(=O)N[C@@H](Cc1cnc[nH]1)C(=O)N[C@H](Cc1ccccc1)C(=O)N[C@@H](CCCN=C(N)N)C(=O)N[C@@H](Cc1c[nH]c2ccccc12)C(N)=O | 1.15 µM | 0.793 µM
CC(=O)N[C@@H](Cc1c[nH]cn1)C(=O)N[C@H](Cc1ccccc1)C(=O)N[C@H](CCCN=C(N)N)C(=O)N[C@H](Cc1c[nH]c2ccccc12)C(N)=O | > 10 µM | –
